Patent US5861405A, “S-substituted 1,3,7-trialkyl-xanthine derivatives” (priority 1994, dated 1999)

The chains behind the UniProt entries cited, without tags or fusion partners.
UniProt P30543, whole entry: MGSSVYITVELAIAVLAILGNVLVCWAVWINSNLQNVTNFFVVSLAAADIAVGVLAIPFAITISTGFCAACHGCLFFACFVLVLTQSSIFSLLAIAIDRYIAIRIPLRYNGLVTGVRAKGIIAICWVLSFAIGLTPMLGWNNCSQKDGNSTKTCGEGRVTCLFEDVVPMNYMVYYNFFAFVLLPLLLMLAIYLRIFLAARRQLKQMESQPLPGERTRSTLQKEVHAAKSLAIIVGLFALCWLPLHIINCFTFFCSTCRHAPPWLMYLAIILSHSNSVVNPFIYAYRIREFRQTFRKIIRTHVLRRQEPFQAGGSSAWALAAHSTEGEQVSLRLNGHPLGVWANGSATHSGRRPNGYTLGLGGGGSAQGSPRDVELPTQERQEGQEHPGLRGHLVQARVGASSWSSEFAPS
UniProt P25099, whole entry: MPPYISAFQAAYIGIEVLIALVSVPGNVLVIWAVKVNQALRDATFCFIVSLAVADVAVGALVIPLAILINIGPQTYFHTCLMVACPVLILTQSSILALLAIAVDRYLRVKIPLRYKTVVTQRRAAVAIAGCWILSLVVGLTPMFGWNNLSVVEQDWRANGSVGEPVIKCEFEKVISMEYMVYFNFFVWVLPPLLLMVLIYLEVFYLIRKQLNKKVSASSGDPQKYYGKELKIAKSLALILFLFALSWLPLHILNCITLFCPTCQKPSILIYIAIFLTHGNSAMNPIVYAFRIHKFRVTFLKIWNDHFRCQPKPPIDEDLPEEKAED

Key:
[1] = tested on: A2 receptors; conditions: background; cited from earlier work
[2] = target: T1, rat striatal A2a receptors (Rattus norvegicus, UniProt P30543)
[3] = target: A2a receptors, rat striatum (Rattus norvegicus, UniProt P30543)
[4] = target: T1, rat striatal A2a receptors; experiment: Radioligand binding, [3H]CGS 21680, rat striatal A2a receptors; conditions: Table I; for Ki: Ki (A2a), vs [3H]CGS21680 (5 nM), rat striatal A2 receptors
[5] = tested on: A2a receptors, bovine striatum
[6] = tested on: A2a receptors, rabbit striatum
[7] = target: T2, rat A1 cortical receptors (Rattus norvegicus, UniProt P25099); experiment: Radioligand binding, [3H]N6-phenylisopropyladenosine ([3H]PIA), rat cortical A1 receptors
T2 construct: Rat cerebral cortical membranes and striatal membranes were prepared; from tissue; host or cells: rat cerebral cortex membranes

Nc1nc2ccc(Cl)cc2c2nc(-c3ccco3)nn12 [CGS 15943]
A2 selectivity, in words [1]: A2 -selective but also by only one order of magnitude

Cn1c(=O)c2c(nc(/C=C/c3cccc(N=C=S)c3)n2C)n(C)c1=O [Compound 28e, 1,3,7-trimethyl-8-(3-isothiocyanatostyryl)xanthine]
irreversible IC50 relative to competitive IC50 [2]: 18 times | selectivity ratio A2a versus A1 based on IC50 [3]: 290 fold | selectivity ratio A2a versus A1 based on Ki [3]: 180 fold | A1/A2 ratio ([3]; IC50): 291 | selectivity ratio based on Ki ([3]; Table V footnote c): 182 | A1/A2a ratio ([4]; ratio of Ki values): 180 | A2a-selectivity [5]: 120 fold | A1/A2 ratio ([5]; IC50): 122 | A2a-selectivity [6]: 180 fold | A1/A2 ratio ([6]; IC50): 183

CCn1c(=O)c2c(nc(/C=C/c3cc(OC)c(OC)c(OC)c3)n2C)n(CC)c1=O [Compound 45b]
Ki [4]: 81 ± 17 nM

CCCn1c(=O)c2[nH]c(/C=C/c3ccccc3)nc2n(CCC)c1=O [Compound 47]
Ki ([7]; Table I, vs [3H]PIA (1 nM), rat A1 receptors, read-out: Ki (A1)): 55 ± 28 nM | Ki ([7]; read-out: A1 affinity in rat): 55 nM

CCCn1c(=O)c2c(nc(/C=C/c3cccc(Cl)c3)n2C)n(CCC)c1=O [Compound 51b]
Ki [4]: 61.3 ± 17.6 nM

Like-named read-outs stand apart in the source and are kept apart here.
